The text below walks through data of patent publication US6313114A, “3,4-Dihydro-2H-benzo[1,4]oxazinyl-methyl)-[3-(1H-indol-3yl)-alkyl]- amines” (American Home Products Corp, priority 1999, dated 2001).

By UniProt entry, the sequences of proteins in these tests, tags left out.
UniProt P31652, whole entry: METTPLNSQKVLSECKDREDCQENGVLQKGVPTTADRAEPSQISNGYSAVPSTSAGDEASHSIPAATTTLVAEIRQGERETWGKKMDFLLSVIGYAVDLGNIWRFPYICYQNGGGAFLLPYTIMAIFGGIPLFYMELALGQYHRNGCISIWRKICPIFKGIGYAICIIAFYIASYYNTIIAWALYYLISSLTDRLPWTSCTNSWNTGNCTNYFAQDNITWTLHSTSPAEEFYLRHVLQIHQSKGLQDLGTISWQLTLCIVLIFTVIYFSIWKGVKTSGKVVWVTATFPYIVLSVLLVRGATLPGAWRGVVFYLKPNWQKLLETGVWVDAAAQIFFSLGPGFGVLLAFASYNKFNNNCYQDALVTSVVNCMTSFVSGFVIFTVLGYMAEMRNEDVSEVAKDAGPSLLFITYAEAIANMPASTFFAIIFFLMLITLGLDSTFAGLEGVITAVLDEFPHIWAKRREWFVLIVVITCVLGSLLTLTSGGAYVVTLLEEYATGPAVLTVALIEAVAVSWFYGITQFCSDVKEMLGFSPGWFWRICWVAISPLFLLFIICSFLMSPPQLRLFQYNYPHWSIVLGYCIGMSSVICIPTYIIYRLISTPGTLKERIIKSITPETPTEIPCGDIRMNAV

In general, Ki refers to a measure of affinity in units of concentration, obtained from inhibition or displacement.

For this assay, the target named is T1, serotonin transporter (Rattus norvegicus, UniProt P31652).
T1 construct: frontal cortical membranes prepared from male Sprague-Dawley rats; from tissue; host or cells: frontal cortical membranes of male Sprague-Dawley rats
Briefly: 3H-paroxetine binding to serotonin transporter in rat frontal cortical membranes. More on the design: species or system male Sprague-Dawley rats.

Structures are written as SMILES.

In the case of `Fc1ccc2[nH]cc(CCCNCC3CN(Cc4ccccc4)c4ccccc4O3)c2c1` (stereo not shown) [Example 6], the inhibition constant (Ki) is 23 nM.
